In ChEMBL document CHEMBL1140018, “Synthesis and structure-activity relationship of imidazo(1,2-a)thieno(3,2-e)pyrazines as IKK-beta inhibitors” (Bioorg Med Chem Lett, 2007):

Species on record: Homo sapiens
Test: Selectivity for IKK-beta over IKKalpha

Ratio IC50: > 10
Structure (SMILES): Cc1cnc2c(NCCN)nc3cc(-c4ccccc4)sc3n12
